Molecules are shown by their SMILES.

In data set [1] the test system is Jurkat cells (clone E6-1). The data set is described as follows: Jurkat cell cytotoxicity assay. Conditions: 40 hr. In kind it is cell-based. The procedure: Jurkat cells (clone E6-1) were grown in complete RPMI-1640 medium containing 10% FBS, 50 U/mL penicillin and 50 µg/mL streptomycin (Invitrogen) at 37°C under a humidified atmosphere and 5% CO2. For cytotoxicity testing, cells were diluted to 1×10^5 per ml in complete RPMI-1640 medium. Test compound stocks were prepared in 100% DMSO and screened at 10 µM against cells (1×10^4 cells per well) in sterile Greiner 96-well flat white opaque culture plates (0.5% final DMSO concentration). The 0% inhibition control wells contained 0.5% DMSO while 100% inhibition control wells contained 40 µM staurosporine. After compound addition, plates were incubated for 40 hr at 37°C. At the end of the incubation period, 50 µL of CellTiter-Glo™ reagent (Promega Inc., Madison, WI, USA) was added to each well and plates were placed on an orbital shaker at room temperature for 2 min to induce lysis. After a further 10 min incubation without shaking to stabilize the signal, the ATP-bioluminescence of each well was determined using an Analyst HT plate reader (Molecular Devices, Sunnyvale, CA, USA). Calculations of percentage inhibition and IC50 were performed similar to those in the T. brucei brucei assay.

Another data set addresses human cathepsin L. The conditions noted are these: read-out: Ki catL; historical data; ref data provided by Celera Genomics; cited from earlier work.
The target of the next data set is human cathepsin B. The conditions noted are these: read-out: Ki catB; historical data; ref data provided by Celera Genomics; cited from earlier work.

Turning to `COc1ccc(-c2csc(C(=O)N[C@@H](CC(C)C)C(=O)NCC#N)c2)cc1`, the “Cytotoxicity (% inhibition at 10 µM) Jurkat cells” value in data set [1] was less than 5%. Besides, the Ki on human cathepsin L is 350 nM; at human cathepsin B, 4200 nM.

`Cc1ccccc1-c1cccc(C(=O)N[C@@H](CC(C)C)C(=O)NCC#N)c1`: the “Cytotoxicity (% inhibition at 10 µM) Jurkat cells” value in data set [1] was less than 5%. In addition, the inhibition constant (Ki) at human cathepsin L is 220 nM; on human cathepsin B it was 24000 nM.

`CC(C)C[C@H](NC(=O)c1ccc(-c2ccc(O)cc2)cc1)C(=O)NCC#N`: the “Cytotoxicity (% inhibition at 10 µM) Jurkat cells” value in data set [1] is less than 5%. Besides, the Ki on human cathepsin L is 4300 nM; at human cathepsin B, 5200 nM.

Regarding `COc1cccc(-c2ccc(C(=O)N[C@@H](CC(C)C)C(=O)NCC#N)cc2)c1`, the “Cytotoxicity (% inhibition at 10 µM) Jurkat cells” value in data set [1] is listed as less than 5%. The Ki was 680 nM on human cathepsin L and 1600 nM on human cathepsin B.

Take `CC(C)C[C@H](NC(=O)c1ccc(-c2ccccc2Cl)s1)C(=O)NCC#N`: the “Cytotoxicity (% inhibition at 10 µM) Jurkat cells” value in data set [1] is given as less than 5%. Further, the inhibition constant Ki at human cathepsin L was 710 nM; on human cathepsin B, 1300 nM.

For `CC(C)C[C@H](NC(=O)c1ccc(-c2ccc(S(C)(=O)=O)cc2)cc1)C(=O)NCC#N`, the “Cytotoxicity (% inhibition at 10 µM) Jurkat cells” value in data set [1] is less than 5%. For the same compound, the Ki on human cathepsin L was 310 nM; on human cathepsin B, 2000 nM.

As for `CC(C)C[C@H](NC(=O)c1cc2c(-c3ccccc3)nn(C)c2s1)C(=O)NCC#N`, the “Cytotoxicity (% inhibition at 10 µM) Jurkat cells” value in data set [1] was less than 5%. Besides, the Ki on human cathepsin L was 110 nM; on human cathepsin B, 90000 nM.

Turning to `CC(C)C[C@H](NC(=O)c1ccc(-c2ccccc2F)cc1)C(=O)NCC#N`, in data set [1], the “Cytotoxicity (% inhibition at 10 µM) Jurkat cells” value is on record as less than 5%. Besides, the values for the Ki on human cathepsin L and at human cathepsin B were 48000 nM and 20000 nM, respectively.

With `CC(C)C[C@H](NC(=O)c1cccc(-c2ccccc2S(C)(=O)=O)c1)C(=O)NCC#N`, in data set [1], the “Cytotoxicity (% inhibition at 10 µM) Jurkat cells” value is less than 5%. For the same compound, the Ki was 2200 nM at human cathepsin L and 18000 nM at human cathepsin B.

For the compound `CC(C)C[C@H](NC(=O)c1cc2c(C(F)(F)F)nn(C)c2s1)C(=O)NCC#N`, the “Cytotoxicity (% inhibition at 10 µM) Jurkat cells” value in data set [1] was less than 5%. Also, the results for the Ki at human cathepsin L and at human cathepsin B were 150 nM and 54000 nM, respectively.

As to `CSc1cccc(-c2cccc(C(=O)N[C@@H](CC(C)C)C(=O)NCC#N)c2)c1`, the “Cytotoxicity (% inhibition at 10 µM) Jurkat cells” value in data set [1] is reported as less than 5%. The Ki is 110 nM on human cathepsin L and 5700 nM at human cathepsin B.

By Ki is commonly meant the equilibrium dissociation constant of an inhibitor or competing ligand from its target.

Values taken from PMC3086806, “Mining a Cathepsin Inhibitor Library for New Antiparasitic Drug Leads” (PLoS Neglected Tropical Diseases, 2011).
